Results: paper PMC3233431

Substrate: C=CC1=C(C)C2=Cc3c(C=C)c(C)c4[n]3[Fe]([Cl])[n]3c(c(C)c(CCC(=O)O)c3=CC3=NC(=C4)C(C)=C3CCC(=O)O)=CC1=N2
Experiment: purified protein
Conditions: NADPH, 0.1 M HEPES-NaOH pH 7.2, hemin 1-20 μM

B1: mTaHO1 (mature TaHO1) (Triticum aestivum) (protein)
chain: AAAAATEMAPAARGEGGGKPFMDEMRAVAMRLHTKDQAREGEKEPQAPPVARWEPTVEGYLRFLVDSKLVFQTLEDIVDRAAVPWYAEFRNTGLERSEPLKKDLEWFTEQGHTIPEPSAAGTAYASYLEELSEKDPQAFICHFYNVYFAHTAGGRMIGKKVAEKILNKKELEFYKWEGTLSQLLQNVRTTLNQVASSWSREEKDHCLEETEKSFAYSGDLLRQIFT
Km: 3.04 µM
